Experimental data: US9580508B2, “Bispecific EGFR/c-Met antibodies” (Janssen Biotech, Inc., priority 2012, dated 2017)
pIC50: −log10 of the molar value. Several values for one entry are separate records, joined by “and”; a condition that tells them apart may be missing. Identical values can stand only once. Like-named read-outs stand apart in the source and are kept apart here.

What was measured:
NCI-H292 cells [1] = assay: ADCC assay, NCI-H292 target cells; format: cell-based, human
[2] = tested on: H1975 cells expressing human HGF; assay: H1975-HGF xenograft tumor efficacy; format: in vivo, nude mice; conditions: H1975-HGF NSCLC, day 16; mAbs 10 mg/kg BIWx3wk, erlotinib 50, afatinib 15 mg/kg QDx21d
[3] = tested on: SKMES-HGF human squamous cell carcinoma; assay: SKMES-HGF xenograft tumor efficacy with EM1-mAb; format: in vivo, SCID Beige mice
NCI-H1975 cells [4] = assay: NCI-H1975 growth/viability with antibodies (standard 2D and low attachment); format: cell-based, human; conditions: NCI-H1975, […] HGF, 72 hours
NCI-H292 cells [5] = assay: NCI-H292 growth/viability with antibodies (standard 2D and low attachment); format: cell-based, human; conditions: NCI-H292, […] HGF, 72 hours
NCI-H1975 cells [6] = assay: ADCC assay, NCI-H1975 target cells; format: cell-based, human
SNU-5 cells = assay: SNU-5 xenograft tumor efficacy; format: in vivo, CR17/SCID mice; conditions: SNU-5 gastric, day 34, 10 mg/kg BIWx4wk
[7] = tested on: H292-HGF human lung cancer xenograft
NCI-H441 cells = assay: ADCC assay, NCI-H441 target cells; format: cell-based, human
NCI-H292-HGF cells = assay: NCI-H292-HGF xenograft tumor efficacy with EM1-mAb; format: in vivo, SCID Beige mice; conditions: H292-HGF small tumor, day 35, 20 mg per kg
NCI-H1993 cells = assay: ADCC assay, NCI-H1993 target cells; format: cell-based, human
H1975 cells = assay: H1975 xenograft tumor efficacy; format: in vivo, nude mice; conditions: H1975 NSCLC, day 18, mAbs 10 mg/kg BIWx3wk, erlotinib 50, afatinib 15 mg/kg QDx21d
[8] = SKMES-HGF large tumor, day 35, 20 mg per kg
[9] = SKMES-HGF small tumor, day 67, 20 mg per kg
[10] = read-out: Standard 2D culture IC50

Potency (EC50 μg/ml) (NCI-H292 cells [1]): 0.0064 µg/mL
pIC50 (NCI-H1975 cells [4]; read-out: Low attachment IC50): < 6.15
pIC50 (NCI-H1975 cells [4]; [10]): < 6.15
pIC50 (NCI-H292 cells [5]; read-out: Low attachment IC50): 6.67
pIC50 (NCI-H292 cells [5]; [10]): < 6.15
Potency (EC50 μg/ml) (NCI-H1975 cells [6]): 0.029 µg/mL
Potency (EC50 μg/ml) (NCI-H441 cells): 0.013 µg/mL
Potency (EC50 μg/ml) (NCI-H1993 cells): 0.0042 µg/mL
Substance: cetuximab
Efficacy (maximum lysis achieved) (NCI-H292 cells [1]): 12%
% TGI (day of study); compared to PBS vehicle [2]: 42 (16) %
Complete regression [3, 8]: 0/7
Partial regression [3, 8]: 0/7
% TGI (day of study); compared to PBS vehicle ([3]; SKMES-HGF lung squamous, day 36, 20 mg/kg BIWx4wk, 20 mg/kg): 88% and 88 (36) %
Complete regression [3, 9]: 6/8
Partial regression [3, 9]: 0/8
T − C (days) at 1000 mm^3 ([3]; SKMES-HGF, 20 mg/kg): 31 days
Tumor volume (mm^3) ([3]; SKMES-HGF, day 1, 20 mg/kg): 98 ± 5 mm^3
Tumor volume (mm^3) ([3]; SKMES-HGF, day 8, 20 mg/kg): 60 ± 8 mm^3
Tumor volume (mm^3) ([3]; SKMES-HGF, day 15, 20 mg/kg): 44 ± 23 mm^3
Tumor volume (mm^3) ([3]; SKMES-HGF, day 22, 20 mg/kg): 42 ± 23 mm^3
Tumor volume (mm^3) ([3]; SKMES-HGF, day 29, 20 mg/kg): 85 ± 60 mm^3
T/C (%) ([3]; SKMES-HGF, day 36, 20 mg/kg): 13%
Tumor volume / Tumor Size (mm^3) at day 36 ([3]; SKMES-HGF, day 36, 20 mg/kg): 125 ± 62 mm^3
Tumor volume (mm^3) ([3]; SKMES-HGF, day 50, 20 mg/kg): 423 ± 115 mm^3
Tumor volume (mm^3) ([3]; SKMES-HGF, day 57, 20 mg/kg): 650 ± 116 mm^3
Tumor volume (mm^3) ([3]; SKMES-HGF, day 67, 20 mg/kg): 1257 ± 151 mm^3
Efficacy (maximum lysis achieved) (NCI-H1975 cells [6]): 11%
% TGI (day of study); compared to PBS vehicle (SNU-5 cells): 49% and 49 (34) %
Tumor volume (mm^3) ([7]; day 7 (start of treatment)): 139 ± 10 mm^3
Tumor volume (mm^3) ([7]; day 9): 168 ± 13 mm^3
Tumor volume (mm^3) ([7]; day 13): 212 ± 20 mm^3
Tumor volume (mm^3) ([7]; day 16): 252 ± 28 mm^3
Tumor volume (mm^3) ([7]; day 20): 371 ± 48 mm^3
Tumor volume (mm^3) ([7]; day 27): 640 ± 82 mm^3
Tumor volume (mm^3) ([7]; day 30): 869 ± 100 mm^3
Antitumor activity / response ([7]; mouse, in vivo): significant antitumor activities
Tolerability / body weight loss ([7]; mouse, in vivo): well tolerated
T − C (days) at 1000 mm^3 ([7]; tumor growth delay vs vehicle): 17 days
Efficacy (maximum lysis achieved) (NCI-H441 cells): 15%
Complete regression (NCI-H292-HGF cells): 0/10
Partial regression (NCI-H292-HGF cells): 0/10
Efficacy (maximum lysis achieved) (NCI-H1993 cells): 21%
% TGI (day of study); compared to PBS vehicle (H1975 cells): 91 (18) %
% TGI (day of study); compared to PBS vehicle (H1975 cells; listed as Cetuximab): 91%
